In patent publication US20260022127A1, “HEXACYCLIC TOPOISOMERASE INHIBITORS HAVING CYTOTOXIC ACTIVITY ON CANCER CELLS” (priority 2022, published 2026):

Tested on: SKBR-3
Assay: IC50 values of Herceptin ADCs on SKBR-3 (Table 4)
Format: cell-based, human
Details: ADC with DAR as in column head

In order of falling IC50:
1. HER-E-36  790 pM
2. HER-E-48  109 pM
3. HER-Deruxtecan [reference compound]  59.5 pM
4. HER-E-37  47.8 pM
5. HER-E-39  44.9 pM
6. HER-E-40  36.1 pM
7. HER-E-46  35.1 pM
8. HER-Vedotin [reference compound]  31.2 pM
